Results on one substance are retold here after patent US6613211B1, “Capillary electrokinesis based cellular assays” (Aclara BioSciences, Inc., priority 1999, dated 2003).

The target in the assay is T1, fMLP receptor (Homo sapiens, UniProt P21462).
T1 sequence (P21462 1-350): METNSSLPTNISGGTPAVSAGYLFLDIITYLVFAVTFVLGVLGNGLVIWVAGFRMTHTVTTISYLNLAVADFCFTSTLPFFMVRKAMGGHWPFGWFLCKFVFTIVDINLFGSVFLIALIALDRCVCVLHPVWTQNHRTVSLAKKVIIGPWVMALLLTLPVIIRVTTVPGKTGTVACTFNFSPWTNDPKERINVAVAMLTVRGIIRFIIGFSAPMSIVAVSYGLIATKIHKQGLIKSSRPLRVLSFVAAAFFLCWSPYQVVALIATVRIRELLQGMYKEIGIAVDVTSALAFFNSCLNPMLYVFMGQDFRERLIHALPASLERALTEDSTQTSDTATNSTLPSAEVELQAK
The assay can be described thus: Capillary cytometric competition of labeled fMLPK binding to cells with a high level of fMLP receptor (syringe pump). To be noted: 2.5 mM of the ligand; labeled ligand 4 nM. As to the method:
In the next study, pumping means was employed to move cells through a capillary. The cells were cultured cells having a high level of the fMLP receptor on the surface. The buffer solution was 140 mM NaCl, 1 mM KH2PO4, 5 mM Na2HPO4, 1.5 mM CaCl2, 0.3 mM MgSO4, 1 mM MgCl2, 0.2% BSA. The cell concentration in the reservoir was 10^6/ml and the receptor concentration was 413 pM. The labeled ligand was fluorescein or Cy-5 labeled fMLPK (N-formyl-Met-Leu-Phe-Lys) which competed with fMLP for receptor. […] The device was comprised of a reservoir having a volume of 500 μl into which was introduced a capillary having an I.D. of 100 μm. In place of an electroosmotic pump, a syringe pump operating at 500 μl/min applied to the other end of the capillary was employed. The reading was taken at about 100 mm from the capillary inlet. The results are shown in FIGS. 4 and 5, where TR stands for tracer, RC refers to receptor and TRC refers to both Tracer and Receptor.
In the following study using concentrations of the fMLPK of 0, 2.5 nM, 250 nM and 2.5 μM, following results were observed, respectively, reported as total peak height: 33, 19, <1, 0.

As to fMLP, the “signal (peaks of labeled ligand bound to cells)” value is “substantially no signal”.
